# Test results as given in PubChem BioAssay AID492993 (Johns Hopkins Ion Channel Center, 2010).
# Protein sequences, listed by entry. Tags and fused reporters are not part of them. Lines headed by an entry give the natural chain unless they say otherwise; changes in a name come on top.
# UniProt P35561: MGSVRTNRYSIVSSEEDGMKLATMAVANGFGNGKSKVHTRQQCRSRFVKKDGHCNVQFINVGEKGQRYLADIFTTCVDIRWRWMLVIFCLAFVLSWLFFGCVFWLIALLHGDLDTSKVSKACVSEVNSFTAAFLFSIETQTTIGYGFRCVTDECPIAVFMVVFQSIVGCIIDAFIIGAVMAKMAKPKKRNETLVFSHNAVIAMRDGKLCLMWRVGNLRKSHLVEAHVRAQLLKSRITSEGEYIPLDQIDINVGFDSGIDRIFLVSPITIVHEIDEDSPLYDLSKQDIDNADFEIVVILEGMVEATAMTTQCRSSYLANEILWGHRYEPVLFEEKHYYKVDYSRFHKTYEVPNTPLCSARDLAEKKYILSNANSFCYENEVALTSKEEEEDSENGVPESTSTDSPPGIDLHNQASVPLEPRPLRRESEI
# The entries are a selection whose mix differs from that of the whole data set. Activity calls are given as the source filed them.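 How the source made its calls: active means thallium signal drop more than 5 SD beyond the mean of the no-compound control wells, seen in both duplicate plates; inactive means the rest.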
# Molecular target: Inward rectifier potassium channel 2 (Mus musculus) (UniProt P35561)
# Assay: mouse Kir2.1 channel inhibition, confirmation, selectivity assay for KCNK9 modulator project, cell-based, HEK293, thallium flux (AID 492993);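 further: signal is fluorescence rise after thallium addition divided by baseline fluorescence; plate controls were assay buffer only for no effect and full block by chlorpromazine control for full effect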
# Conditions: Kir2.1 cells, FluxOR thallium flux fluorescence; at 10 µM; hits give high values
row,SMILES,inhibition
1,O=P(Nc1nccs1)(c1ccccc1)c1nc2ccccc2s1 (stereo unspecified),inactive: 0%
